Experimental data: patent US20210115040A1, “OGA INHIBITOR COMPOUNDS” (Janssen Pharmaceutica NV, priority 2018, published 2021)

The chains behind the UniProt entries cited, without tags or fusion partners.
UniProt O60502, whole entry: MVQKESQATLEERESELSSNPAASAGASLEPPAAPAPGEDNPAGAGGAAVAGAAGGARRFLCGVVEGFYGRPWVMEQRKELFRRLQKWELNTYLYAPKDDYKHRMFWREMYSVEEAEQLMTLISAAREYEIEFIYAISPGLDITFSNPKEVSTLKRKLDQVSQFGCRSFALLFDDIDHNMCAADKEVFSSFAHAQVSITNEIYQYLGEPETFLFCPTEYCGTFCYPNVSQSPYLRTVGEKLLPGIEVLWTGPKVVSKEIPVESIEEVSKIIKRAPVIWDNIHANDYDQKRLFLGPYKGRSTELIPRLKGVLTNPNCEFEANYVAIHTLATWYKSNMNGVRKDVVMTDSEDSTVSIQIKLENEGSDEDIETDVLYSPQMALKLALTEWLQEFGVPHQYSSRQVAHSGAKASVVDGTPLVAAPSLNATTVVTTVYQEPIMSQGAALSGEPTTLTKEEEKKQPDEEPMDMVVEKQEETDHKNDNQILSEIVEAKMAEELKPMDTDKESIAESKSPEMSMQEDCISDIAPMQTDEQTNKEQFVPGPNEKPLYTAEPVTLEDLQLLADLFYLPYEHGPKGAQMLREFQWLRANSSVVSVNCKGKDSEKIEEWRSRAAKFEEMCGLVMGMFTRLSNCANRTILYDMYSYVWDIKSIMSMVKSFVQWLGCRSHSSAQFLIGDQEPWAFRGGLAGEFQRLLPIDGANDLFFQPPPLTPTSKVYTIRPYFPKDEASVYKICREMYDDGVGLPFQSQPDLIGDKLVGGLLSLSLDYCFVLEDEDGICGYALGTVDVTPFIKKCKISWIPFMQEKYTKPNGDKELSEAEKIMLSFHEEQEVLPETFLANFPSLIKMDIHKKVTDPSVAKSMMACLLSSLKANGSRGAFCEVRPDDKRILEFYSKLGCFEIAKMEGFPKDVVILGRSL

How the values were obtained:
[1] = biological target: OGA (Homo sapiens, UniProt O60502); experiment: OGA cellular assay (ICC detection of O-GlcNAcylated proteins in HEK293 cells inducible for P301L mutant human Tau); conditions: for Cellular hOGA; pEC50: 6 hours incubation; for Cellular Emax (%): maximum = Thiamet G 200 uM
Protocol: HEK293 cells inducible for P301L mutant human Tau (isoform 2N4R) were established at Janssen. Thiamet-G was used for both plate validation (high control) and as reference compound (reference EC50 assay validation). OGA inhibition is evaluated through the immunocytochemical (ICC) detection of O-GlcNAcylated proteins by the use of a monoclonal antibody (CTD110.6; Cell Signaling, #9875) detecting 0-GlcNAcylated residues as previously described (Dorfmueller et al. 2010 Chemistry & biology, 17:1250). Inhibition of OGA will result in an increase of O-GlcNAcylated protein levels resulting in an increased signal in the experiment. Cell nuclei are stained with Hoechst to give a cell culture quality control and a rough estimate of immediate compounds toxicity, if any. ICC pictures are imaged with a Perkin Elmer Opera Phenix plate microscope and quantified with the provided software Perkin Elmer Harmony 4.1.
Cells were propagated in DMEM high Glucose (Sigma, #D5796) following standard procedures. 2 days before the cell assay cells are split, counted and seeded in Poly-D-Lysine (PDL) coated 96-wells (Greiner, #655946) plate at a cell density of 12,000 cells per cm^2 (4,000 cells per well) in 100 μl of Assay Medium (Low Glucose medium is used to reduce basal levels of GlcNAcylation) (Park et al. 2014 The Journal of biological chemistry 289:13519). At the day of compound test medium from assay plates was removed and replenished with 90 μl of fresh Assay Medium. 10 μl of compounds at a 10fold final concentration were added to the wells. Plates were centrifuged shortly before incubation in the cell incubator for 6 hours. DMSO concentration was set to 0.2%. Medium is discarded by applying vacuum. For staining of cells medium was removed and cells washed once with 100 μl D-PBS (Sigma, #D8537). From next step onwards unless other stated assay volume was always 50 μl and incubation was performed without agitation and at room temperature. Cells were fixed in 50 μl of a 4% paraformaldehyde (PFA, Alpha aesar, #043368) PBS solution for 15 minutes at room temperature. […] Before analysis samples were washed 2 times manually for 5 minutes in ICC base buffer.
Imaging is performed using Perkin Elmer Phenix Opera using a water 20× objective and recording 9 fields per well. Intensity readout at 488 nm is used as a measure of O-GlcNAcylation level of total proteins in wells. To assess potential toxicity of compounds nuclei were counted using the Hoechst staining. IC50-values are calculated using parametric non-linear regression model fitting. As a maximum inhibition Thiamet G at a 200 uM concentration is present on each plate. In addition, a concentration response of Thiamet G is calculated on each plate.

[2] = biological target: recombinant human Meningioma Expressed Antigen 5 (MGEA5), also referred to as O-GlcNAcase (OGA) (Homo sapiens, UniProt O60502); experiment: OGA biochemical assay (inhibition of FM-GlcNAc hydrolysis, fluorescence); conditions: FM-GlcNAc substrate; for Enzymatic hOGA; pIC50: 6 h at room temperature; for Enzymatic Emax (%): maximal effect
Text: The assay is based on the inhibition of the hydrolysis of fluorescein mono-β-D-N-Acetyl-Glucosamine (FM-GlcNAc) (Mariappa et al. 2015, Biochem J 470:255) by the recombinant human Meningioma Expressed Antigen 5 (MGEA5), also referred to as O-GlcNAcase (OGA). The hydrolysis FM-GlcNAc (Marker Gene technologies, cat #M1485) results in the formation of β-D-N-glucosamineacetate and fluorescein. The fluorescence of the latter can be measured at excitation wavelength 485 nm and emission wavelength 538 nm. An increase in enzyme activity results in an increase in fluorescence signal. Full length OGA enzyme was purchased at OriGene (cat #TP322411). The enzyme was stored in 25 mM Tris.HCl, pH 7.3, 100 mM glycine, 10% glycerol at −20° C. Thiamet G and GlcNAcStatin were tested as reference compounds (Yuzwa et al. 2008 Nature Chemical Biology 4:483; Yuzwa et al. 2012 Nature Chemical Biology 8:393). The assay was performed in 200 mM Citrate/phosphate buffer supplemented with 0.005% Tween-20. 35.6 g Na2HPO4 2H2O (Sigma, #C0759) were dissolved in 1 L water to obtain a 200 mM solution. 19.2 g citric acid (Merck, #1.06580) was dissolved in 1 L water to obtain a 100 mM solution. pH of the sodiumphosphate solution was adjusted with the citric acid solution to 7.2. The buffer to stop the reaction consists of a 500 mM Carbonate buffer, pH 11.0. 734 mg FM-GlcNAc were dissolved in 5.48 mL DMSO to obtain a 250 mM solution and was stored at −20° C. OGA was used at a 2 nM concentration and FM-GlcNAc at a 100 uM final concentration. Dilutions were prepared in assay buffer.
50 nl of a compound dissolved in DMSO was dispensed on Black Proxiplate™ 384 Plus Assay plates (Perkin Elmer, #6008269) and 3 μl fl-OGA enzyme mix added subsequently. Plates were pre-incubated for 60 min at room temperature and then 2 μl FM-GlcNAc substrate mix added. […] Plates were briefly centrifuged for 1 min at 1000 rpm and incubate at room temperature for 6 h. To stop the reaction 5 μl STOP buffer were added and plates centrifuge again 1 min at 1000 rpm. Fluorescence was quantified in the Thermo Scientific Fluoroskan Ascent or the PerkinElmer EnVision with excitation wavelength 485 nm and emission wavelength 538 nm.
For analysis a best-fit curve is fitted by a minimum sum of squares method. From this an IC50 value and Hill coefficient was obtained. High control (no inhibitor) and low control (saturating concentrations of standard inhibitor) were used to define the minimum and maximum values.

[3] = tested form: citrate (2 C6H8O7)

SMILES	Cellular hOGA; pEC50 [1]	Cellular Emax (%) [1]	Enzymatic hOGA; pIC50 [2]	Enzymatic Emax (%) [2]	Cellular hOGA; pEC50 [1, 3]	Cellular Emax (%) [1, 3]	Enzymatic hOGA; pIC50 [2, 3]	Enzymatic Emax (%) [2, 3]
Cc1cc(C[C@H]2CCCN(C(C)c3cnc4nc(C)[nH]c4c3)C2)cc(C)n1 (stereo partly drawn)	6.5	69%	7.9	100%	–	–	–	–
Cc1cc(O[C@@H]2CCN(C(C)c3ccc4sc(C)nc4n3)C2)cc(C)n1 (stereo partly drawn)	<6	3%	6.5	–	–	–	–	–
Cc1cc(C[C@@H]2CCN([C@@H](C)c3cnc4sc(C)nc4c3)C2)cc(C)n1 (single isomer, unassigned)	–	–	–	–	<6	−2%	6.2	93%
Cc1cc(C[C@@H]2CCN([C@H](C)c3cnc4sc(C)nc4c3)C2)cc(C)n1 (single isomer, unassigned)	–	–	–	–	6.1	53%	7.8	100%
